Laboratory results from paper PMC7723054.
This is one part of the list.

T1: LIN28A (human?, UniProt Q9H9Z2 1-209)
T1 sequence: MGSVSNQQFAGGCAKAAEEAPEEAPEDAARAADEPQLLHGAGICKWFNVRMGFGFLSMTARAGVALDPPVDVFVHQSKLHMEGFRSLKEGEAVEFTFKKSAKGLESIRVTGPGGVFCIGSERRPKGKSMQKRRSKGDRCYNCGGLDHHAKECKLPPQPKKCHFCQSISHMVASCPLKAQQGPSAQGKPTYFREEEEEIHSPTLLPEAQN

T2: CIRBP (Homo sapiens, UniProt Q14011 1-172)
T2 sequence: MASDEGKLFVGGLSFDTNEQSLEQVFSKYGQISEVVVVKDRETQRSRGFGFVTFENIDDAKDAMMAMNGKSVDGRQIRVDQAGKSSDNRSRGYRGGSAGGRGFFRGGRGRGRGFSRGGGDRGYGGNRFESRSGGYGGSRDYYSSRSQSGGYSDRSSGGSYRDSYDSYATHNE

T3: DHX36 (Homo sapiens, UniProt Q9H2U1 1-1008)
T3 sequence: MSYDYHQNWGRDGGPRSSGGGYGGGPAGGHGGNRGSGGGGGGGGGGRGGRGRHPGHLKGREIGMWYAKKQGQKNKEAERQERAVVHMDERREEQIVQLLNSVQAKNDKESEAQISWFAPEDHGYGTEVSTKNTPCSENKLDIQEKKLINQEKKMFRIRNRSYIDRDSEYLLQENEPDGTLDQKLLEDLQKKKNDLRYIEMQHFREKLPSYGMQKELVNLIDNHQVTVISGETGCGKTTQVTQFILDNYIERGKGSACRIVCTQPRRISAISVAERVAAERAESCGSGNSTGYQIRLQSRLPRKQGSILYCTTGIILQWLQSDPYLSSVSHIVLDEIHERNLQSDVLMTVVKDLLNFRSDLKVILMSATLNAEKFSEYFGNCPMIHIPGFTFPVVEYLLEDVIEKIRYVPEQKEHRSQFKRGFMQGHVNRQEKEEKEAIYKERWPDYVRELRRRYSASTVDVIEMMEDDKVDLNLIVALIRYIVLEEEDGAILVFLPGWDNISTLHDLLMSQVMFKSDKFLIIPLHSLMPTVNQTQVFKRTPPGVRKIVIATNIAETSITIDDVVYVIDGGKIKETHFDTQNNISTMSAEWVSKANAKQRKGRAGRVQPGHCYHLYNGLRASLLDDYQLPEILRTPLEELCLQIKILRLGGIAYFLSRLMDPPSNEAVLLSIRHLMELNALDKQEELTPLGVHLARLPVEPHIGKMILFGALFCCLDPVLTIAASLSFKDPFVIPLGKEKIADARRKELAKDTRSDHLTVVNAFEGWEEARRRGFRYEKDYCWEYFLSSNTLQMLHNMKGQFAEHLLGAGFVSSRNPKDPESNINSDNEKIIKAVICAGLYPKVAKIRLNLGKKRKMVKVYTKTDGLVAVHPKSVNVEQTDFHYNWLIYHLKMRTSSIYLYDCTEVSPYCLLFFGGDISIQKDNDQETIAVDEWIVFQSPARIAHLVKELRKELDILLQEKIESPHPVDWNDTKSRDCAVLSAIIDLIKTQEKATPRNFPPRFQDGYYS

B1: hsa-mir-6068 (structured_RNA)
RNA: GGGAAGCGCCGCGUUCAUCUUUAAGUGCGGUGUACGAAGUUUCAGCGUGGCUUGUGGCUGAGUGUCACGCUGCGCUGAAGCUUCGUGCAC
B2: hsa-mir-5681b (structured_RNA)
RNA: GGGAAACGAUAGGGCCGGUGUCAAAAUCGGUGUACGAAGUUUCAGCUAGUCUAAUAGGGACUAGCUGAAGCUUCGUGCAC
B3: hsa-mir-3685 (structured_RNA)
RNA: GGGAAAAUCAGGCAUUCAAGCCCGGCAAGGUGUACGAAGUUUCAGCGACUUGAGAUUAUAGUCGCUGAAGCUUCGUGCAC
B4: hsa-mir-6870 (structured_RNA)
RNA: GGGAAGAAGAUGACGGCUCAAUGCAAUCGGUGUACGAAGUUUCAGCUUGAACUUCAUUUCUCAUGCUCAGCUGAAGCUUCGUGCAC
B5: hsa-mir-378h (structured_RNA)
RNA: GGGAAUACGGUGUCAACGGAAAACCUCUGGUGUACGAAGUUUCAGCGGGAUGAGCCCUGGCUCUGUUUCCUAGGCUGAAGCUUCGUGCAC
B6: hsa-mir-513a-2_513a-1 (structured_RNA)
RNA: GGGAGAGACCACGGACUGUCAUUCAUAGGGUGUACGAAGUUUCAGCUCAUUUAUGUGAACUAAAAUAUAAAUUUGCUGAAGCUUCGUGCAC
B7: hsa-mir-4742 (structured_RNA)
RNA: GGGAACAGGUUCUCAACCUGGGUCCACUGGUGUACGAAGUUUCAGCCAGAUACUUUUUAAAAUUUGUUUGAGUUGAGGCAGAUUAAAUAUCUGGCUGAAGCUUCGUGCAC
B8: hsa-mir-516a-1_516a-2 (structured_RNA)
RNA: GGGAAUUCCUCAGUGUUAGAGUACGGGAGGUGUACGAAGUUUCAGCAGCACUUUCUGUUGUCUGAAAGAAAAGAAAGUGCUGCUGAAGCUUCGUGCAC
B9: hsa-mir-7847 (structured_RNA)
RNA: GGGACACUAAUGGCACGUGCGUUGCAGAGGUGUACGAAGUUUCAGCUAGGCCCACUGCUCAGUGGAGCGCUGAAGCUUCGUGCAC
B10: hsa-mir-1287 (structured_RNA)
RNA: GGGACAGAGACGCAAGGACUACUCACAAGGUGUACGAAGUUUCAGCCGAGUCUGAGCCUUUAAAAGCCACUCUGCUGAAGCUUCGUGCAC
B11: NEAT1_ParasoR_ID30 (structured_RNA)
RNA: GGGACUGUAUAUCCGGGGUCGAAUUAACGGUGUACGAAGUUUCAGCGUAUACCUUUUUGUACGCUGAAGCUUCGUGCAC
B12: hsa-mir-6089-2_6089-1 (structured_RNA)
RNA: GGGAAGGUAAAAGUCGAUUAGGAACCAUGGUGUACGAAGUUUCAGCCGUGCGCCAGUGGAGGCUGAAGCUUCGUGCAC
B13: hsa-mir-4732 (structured_RNA)
RNA: GGGAGAUCCCGAGGACGGCAAAGCAAAGGGUGUACGAAGUUUCAGCAAGCUGUGUGUGUCCAGCGCUGAAGCUUCGUGCAC
B14: hsa-mir-4308 (structured_RNA)
RNA: GGGAGUACAUUGUAGGACGUAGAUAACCGGUGUACGAAGUUUCAGCUGGACAGAAAUUUCCUUUUGAGGAAAUCUUUCCCGCUGAAGCUUCGUGCAC
B15: hsa-mir-5705 (structured_RNA)
RNA: GGGACCAACCGUCAGUGUCGUAUUAAGCGGUGUACGAAGUUUCAGCAACACCCAUCCCAGGAUUGCUGAUGGGUGUUGCUGAAGCUUCGUGCAC
B16: hsa-mir-8056 (structured_RNA)
RNA: GGGAAGGGAGUCAUCCCUAAGACAGCCAGGUGUACGAAGUUUCAGCUAGGAGCUGUGCCUCCUGGCCUAUUCCUGUUCGUGGCUGAAGCUUCGUGCAC
B17: hsa-mir-320a (structured_RNA)
RNA: GGGACACCCUCGGGCAGAGAGACAUUCAGGUGUACGAAGUUUCAGCUCUUCCCGGAGUCGGGAAAAGCUGAAGCUUCGUGCAC
B18: hsa-mir-4799 (structured_RNA)
RNA: GGGACAGGAAUGCAUAACGGACGGAAGCGGUGUACGAAGUUUCAGCCAGUCCUGAGAUGCAGGGACUGGCUGAAGCUUCGUGCAC
B19: hsa-mir-556 (structured_RNA)
RNA: GGGAACAGAGGGAACUGCCUAAGGAACCGGUGUACGAAGUUUCAGCAUAUGAGCUUCAUUUAUACAUUUCAUAUGCUGAAGCUUCGUGCAC
B20: hsa-mir-6773 (structured_RNA)
RNA: GGGAAUGGGGCUAUAGGUAUUAUAACCGGGUGUACGAAGUUUCAGCCAGGAUUAGUGCUUAUGCUAAGAUGUCUUCACUGGCUGAAGCUUCGUGCAC
B21: hsa-mir-346 (structured_RNA)
RNA: GGGAAAUUUGACUGCCGCGUGACUAAGGGGUGUACGAAGUUUCAGCCUCUCUGUUGCUCUGAAGGAGGCUGAAGCUUCGUGCAC
B22: PARIS_ID36 (structured_RNA)
RNA: GGGAAGAAAGUUGACCGGACGCUCACACGGUGUACGAAGUUUCAGCGGCAAGAAUAUUCUCUCUGUUGCUGAAGCUUCGUGCAC
B23: hsa-mir-4297 (structured_RNA)
RNA: GGGAAAAUCCGUCCGGGGAUGGUCUCUCGGUGUACGAAGUUUCAGCUGUGCCUGCCUUCGAAGUGCACGGCAGGGCUGAAGCUUCGUGCAC
B24: hsa-mir-6872 (structured_RNA)
RNA: GGGAAAUGCUGUGUGCGCUCCAUGGAUUGGUGUACGAAGUUUCAGCAAGGCCAGGACCCGCUGACCCAUGCUGAAGCUUCGUGCAC
B25: hsa-mir-200c (structured_RNA)
RNA: GGGAAAACACUCCUGUCGCGCCAAUUAAGGUGUACGAAGUUUCAGCGUUUGGGUGCGGUUGGGAGUCUCUAAUGCUGAAGCUUCGUGCAC
B26: hsa-mir-1255b-2 (structured_RNA)
RNA: GGGACUAUAAGCUGAAUGAUGACUUGCCGGUGUACGAAGUUUCAGCGGUUUGCGCCUCAAGAAACCGCUGAAGCUUCGUGCAC

Tests used:
Test in all cases: FOREST: bead pull-down of RNA structure library v1, barcode microarray; U1A/LIN28A: 20 mM HEPES pH 7.5, 80 mM KCl, 20 mM NaCl, 10% glycerol, 2 mM DTT, 0.1 ug/uL BSA, 4 C; BG4/CIRBP/DHX36: 10 mM Tris-HCl pH 7.5, 100 mM KCl (or LiCl),; high values mean tight binding
[1] = molecular target: T1, LIN28A
[2] = molecular target: T2, CIRBP
[3] = molecular target: T3, DHX36

| Binder | binding signal [1] | binding signal [2] | binding signal [3] |
| --- | --- | --- | --- |
| B1 | 0.183 z-score | 0.749 z-score | 0.29 z-score |
| B2 | 0.208 z-score | -0.796 z-score | 0.337 z-score |
| B3 | 0.155 z-score | 0.306 z-score | 0.141 z-score |
| B4 | 0.175 z-score | 0.7 z-score | -0.684 z-score |
| B5 | 0.169 z-score | 1.27 z-score | -0.0803 z-score |
| B6 | 0.152 z-score | 0.821 z-score | -0.902 z-score |
| B7 | 0.167 z-score | -0.924 z-score | -0.244 z-score |
| B8 | 0.163 z-score | -0.471 z-score | -1.05 z-score |
| B9 | 0.166 z-score | -0.994 z-score | -0.219 z-score |
| B10 | 0.148 z-score | 0.791 z-score | -0.222 z-score |
| B11 | 0.181 z-score | -0.74 z-score | -0.523 z-score |
| B12 | 0.185 z-score | 0.448 z-score | -0.102 z-score |
| B13 | 0.171 z-score | 1 z-score | -0.0589 z-score |
| B14 | 0.206 z-score | -0.0984 z-score | -0.379 z-score |
| B15 | 0.15 z-score | -0.0649 z-score | -0.536 z-score |
| B16 | 0.15 z-score | -0.952 z-score | 0.321 z-score |
| B17 | 0.195 z-score | -0.59 z-score | -0.167 z-score |
| B18 | 0.142 z-score | -0.602 z-score | -1.56 z-score |
| B19 | 0.138 z-score | 1.56 z-score | -0.0452 z-score |
| B20 | 0.179 z-score | 0.518 z-score | -0.0785 z-score |
| B21 | 0.189 z-score | 0.313 z-score | -0.443 z-score |
| B22 | 0.146 z-score | 0.431 z-score | -0.164 z-score |
| B23 | 0.148 z-score | 0.344 z-score | -0.44 z-score |
| B24 | 0.188 z-score | -0.206 z-score | 0.53 z-score |
| B25 | 0.142 z-score | 0.205 z-score | 0.529 z-score |
| B26 | 0.179 z-score | -0.316 z-score | -0.276 z-score |
